Several values for one entry are separate records, joined by “and”; a condition that tells them apart may be missing. Equal entries are not always repeated. The list shows a part of the results, in another mix than the full data. Results filed as inconclusive are left out. Activity calls are given as the source filed them. Unless noted, the call rests on the fitted dose curve; in most records, active means well fitted curve in the direction sought with a large enough effect in the repeat runs; inconclusive means weak or mixed curves; inactive means no such curve, though single readings can be large; an effect the other way counts as inactive or inconclusive.
Tests used:
[1] = qHTS assay to identify small molecule antagonists of the estrogen related receptor signaling pathway with the pleiotropic PPARgamma coactivator (PGC) from Tox21 10K library - cell viability counter screen (AID 1224840; active means well fitted cell-killing curve with a large enough effect in the repeat runs, not every such curve was filed as active; further: nearly all actives have a fitted effect of over 40% in size); details: PGC/ERR reporter cells viability, CellTiter-Fluor, 17.5 h
Procedure, shortened: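 Here the PGC/ERR cells serve as a cytotoxicity control: they are exposed to compounds for 17.5 hours at 37 C, and live-cell signal is quantified using CellTiter-Fluor fluorescence.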

Chains of the proteins cited; added tags and fusions are not shown.
UniProt P16473, whole entry: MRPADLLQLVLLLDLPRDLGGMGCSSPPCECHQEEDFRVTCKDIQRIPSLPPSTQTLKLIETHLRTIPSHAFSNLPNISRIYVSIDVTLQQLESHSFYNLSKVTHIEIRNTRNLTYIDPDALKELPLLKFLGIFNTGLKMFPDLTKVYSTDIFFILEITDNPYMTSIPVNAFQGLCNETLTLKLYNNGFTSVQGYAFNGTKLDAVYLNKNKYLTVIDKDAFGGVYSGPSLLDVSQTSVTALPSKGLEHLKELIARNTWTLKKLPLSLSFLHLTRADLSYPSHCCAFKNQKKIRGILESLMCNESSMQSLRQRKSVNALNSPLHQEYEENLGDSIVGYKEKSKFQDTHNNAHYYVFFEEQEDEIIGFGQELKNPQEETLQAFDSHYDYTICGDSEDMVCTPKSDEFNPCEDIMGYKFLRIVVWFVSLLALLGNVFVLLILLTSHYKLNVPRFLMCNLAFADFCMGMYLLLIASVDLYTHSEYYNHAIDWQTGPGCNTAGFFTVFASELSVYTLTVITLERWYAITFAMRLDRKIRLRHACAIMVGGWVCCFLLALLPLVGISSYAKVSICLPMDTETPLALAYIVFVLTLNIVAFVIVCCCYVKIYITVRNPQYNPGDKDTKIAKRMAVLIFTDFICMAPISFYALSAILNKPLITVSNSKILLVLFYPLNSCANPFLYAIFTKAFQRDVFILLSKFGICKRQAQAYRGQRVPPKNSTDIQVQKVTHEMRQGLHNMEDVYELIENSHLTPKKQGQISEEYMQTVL

[2] = qHTS assay to identify small molecule agonists of the estrogen related receptor signaling pathway with the pleiotropic PPARgamma coactivator (PGC) from Tox21 10K library (AID 1224842); details: PGC/ERR reporter cell line, luciferase ONE-Glo, 18 h; further: nearly all actives have a fitted effect of over 15% in size
Procedure, shortened: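 PGC/ERR reporter cell line, 2,000 cells per well, incubated 6 h at 37 C before 23 nL compound in DMSO was added. After 18 h at 37 C, One-Glo luminescence read following 30 min at room temperature.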

[3] = target: Thyrotropin receptor (Homo sapiens) (UniProt P16473); assay: qHTS assay to identify small molecule agonists of the thyroid stimulating hormone receptor (TSHR) signaling pathway (AID 1224843; calls by dose curve; further: nearly all actives have a fitted effect of over 45% in size); details: TSHR-HEK293 cells, cAMP HTRF, agonist mode, 30 min
[4] = qHTS assay to identify small molecule agonists of H2AX - cell viability counter screen (AID 1224847; calls by dose curve;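 further: wild-type CHO-K1 cells; top concentration of the series differs between compounds; nearly all actives have a fitted effect of over 30% in size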); details: CHO-K1 viability, CellTiter-Glo luminescence, 3 h
Procedure, shortened: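 Cells plated first: CHO-K1, 1000 per well in 10% FBS medium, incubated overnight at 37C. Then 15-point compound titration added (final DMSO 0.76%) for 3 hr. Finally CellTiter-Glo added and luminescence read.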

[5] = qHTS assay to identify small molecule agonists of the estrogen related receptor (ERR) signaling pathway from Tox21 library (AID 1224849; calls by dose curve; further: nearly all actives have a fitted effect of over 15% in size); details: ERR reporter cell line, ONE-Glo luciferase, 18 h
Procedure, shortened: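 Six hours post-seeding at 37 C/5% CO2, ERR cells receive DMSO-solubilised compounds; after 18 h at 37 C, ONE-Glo reagent is applied and luminescence recorded.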

[6] = qHTS RealTime-Glo MT Cell Viability Assay in HepG2 cells - 24 hour (AID 1224867); details: RealTime-Glo luminescence; further: nearly all actives have a fitted effect of over 50% in size
Procedure, shortened: (§1)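 HepG2 cells were seeded at 600 cells/well together with NanoLuc luciferase and a cell-permeant prosubstrate, preincubated 5 h at 37 C/5% CO2, then pin-dosed with compounds in DMSO. Nonlytic luminescence from viable cells was read at each time point.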

[7] = qHTS RealTime-Glo MT Cell Viability Assay in HEK293 cells - 32 hour (AID 1224868); details: RealTime-Glo luminescence; further: top concentration of the series differs between compounds; nearly all actives have a fitted effect of over 50% in size
Procedure, shortened: (§2)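 HEK293 cells were seeded at 600 cells/well together with NanoLuc luciferase and cell-permeant prosubstrate, preincubated 5 h at 37 C/5% CO2, then given compound in DMSO by pintool. Luminescence from viable-cell prosubstrate reduction was read repeatedly over 40 h.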

[8] = A CellTox Green Cytotoxicity Assay to monitor cytotoxicity in HEK293 cells - 0 hour (AID 1224869); details: CellTox Green fluorescence; series mostly up to 76.8 µM; further: nearly all actives have a fitted effect of over 50% in size
Procedure, shortened: (§3)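 Seeding of HEK293 cells together with cytotoxicity dye preceded a 5 h incubation at 37 C/5% CO2. Test compounds in DMSO were then added and fluorescence monitored across 40 h.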

[9] = qHTS RealTime-Glo MT Cell Viability Assay in HepG2 cells - 40 hour (AID 1224870); details: RealTime-Glo luminescence; further: nearly all actives have a fitted effect of over 50% in size
Procedure, shortened: (§4)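 HepG2 cells (600/well) mixed with RealTime-Glo MT reagent, settled 5 h at 37 C/5% CO2 before compound addition. Nonlytic NanoLuc luminescence from viable-cell prosubstrate reduction read repeatedly during 40 h treatment at 37 C.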

[10] = A CellTox Green Cytotoxicity Assay to monitor cytotoxicity in HEK293 cells - 40 hour (AID 1224871); details: CellTox Green fluorescence; series mostly up to 76.8 µM; further: nearly all actives have a fitted effect of over 45% in size
Procedure, shortened: as §3

[11] = qHTS RealTime-Glo MT Cell Viability Assay in HEK293 cells - 16 hour (AID 1224872); details: RealTime-Glo luminescence; at 76.8 µM (top of the series) unless noted
Procedure, shortened: as §2

[12] = qHTS RealTime-Glo MT Cell Viability Assay in HepG2 cells - 8 hour (AID 1224873); details: RealTime-Glo luminescence; at 76.8 µM (top of the series) unless noted; further: nearly all actives have a fitted effect of over 55% in size
Procedure, shortened: as §4

[13] = A CellTox Green Cytotoxicity Assay to monitor cytotoxicity in HEK293 cells - 24 hour (AID 1224875); details: CellTox Green fluorescence; series mostly up to 76.8 µM; further: nearly all actives have a fitted effect of over 45% in size
Procedure, shortened: as §3

[14] = qHTS RealTime-Glo MT Cell Viability Assay in HepG2 cells - 32 hour (AID 1224877); details: RealTime-Glo luminescence; further: nearly all actives have a fitted effect of over 55% in size
Procedure, shortened: as §1

[15] = A CellTox Green Cytotoxicity Assay to monitor cytotoxicity in HepG2 cells - 24 hour (AID 1224878); details: CellTox Green fluorescence; series mostly up to 76.8 µM; further: nearly all actives have a fitted effect of over 45% in size
Procedure, shortened: (§5)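 Nonlytic assay: viable cells exclude the dye, so fluorescence scales with cell death. HepG2 at 600 cells/well, compounds added after 5 h, signal read across 40 h.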

[16] = A CellTox Green Cytotoxicity Assay to monitor cytotoxicity in HepG2 cells - 40 hour (AID 1224879); details: CellTox Green fluorescence; series mostly up to 76.8 µM; further: nearly all actives have a fitted effect of over 40% in size
Procedure, shortened: as §5

[17] = qHTS RealTime-Glo MT Cell Viability Assay in HEK293 cells - 0 hour (AID 1224880); details: RealTime-Glo luminescence
Procedure, shortened: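 Tox21 screen in HEK293 using RealTime-Glo MT chemistry, with cells and reagent co-dispensed. Luminescence proportional to viable cell number was captured at intervals during 40 h compound exposure at 37 C.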

[18] = A CellTox Green Cytotoxicity Assay to monitor cytotoxicity in HepG2 cells - 0 hour (AID 1224882); details: CellTox Green fluorescence; series mostly up to 76.8 µM; further: nearly all actives have a fitted effect of over 35% in size
Procedure, shortened: as §5

[19] = A CellTox Green Cytotoxicity Assay to monitor cytotoxicity in HepG2 cells - 32 hour (AID 1224883); details: CellTox Green fluorescence; series mostly up to 76.8 µM; further: nearly all actives have a fitted effect of over 50% in size
Procedure, shortened: as §5

[20] = qHTS assay to identify small molecule antagonists of the estrogen related receptor signaling pathway with the pleiotropic PPARgamma coactivator (PGC) from Tox21 10K library (AID 1224841; call rule not given here; further: potency means the concentration at half of the fitted maximal effect); details: PGC/ERR reporter cell line, ONE-Glo luciferase, 18 h; series mostly up to 92.4 µM
[21] = at 154 µM (top of the series) unless noted
[22] = at 76.8 µM (top of the series) unless noted
On the % scale 0 is the no-effect control and ±100 the full control effect.

N#CBr
inactive: viability change, negative = cytotoxic ([1]; at 92.4 µM (top of the series)) 2.42% | activation ([2]; at 92.4 µM (top of the series)) 2.96% | activation ([3]; at 92.4 µM (top of the series)) 2.05% | activity change, negative = cytotoxicity [4, 21] 0.761% | activity change, positive = activation ([5]; at 92.4 µM (top of the series)) 0.168% | activity change, negative = cytotoxicity ([6]; at 76.8 µM (top of the series)) 3.42% | activity change, negative = cytotoxic ([7]; at 76.8 µM (top of the series)) 13.2% | Potency [8] | activity change, negative = cytotoxic [9, 22] 20.5% | Potency [10] | activity change, negative = cytotoxicity [11] 11.4% | viability change, negative = cytotoxic [12] -8.41% | Potency [13] | activity change, negative = cytotoxic ([14]; at 76.8 µM (top of the series)) 9.62% | Potency [15] | Potency [16] | activity change, negative = cytotoxicity [17, 22] 10.3% | Potency [18] | Potency [19]

OCCSCCO
inactive: viability change, negative = cytotoxic ([1]; at 42.5 µM (top of the series)) 11.3% | viability change, negative = cytotoxic ([1]; at 92.4 µM (top of the series)) 2.62% | activation ([2]; at 42.5 µM (top of the series)) -4.69% | activation ([2]; at 92.4 µM (top of the series)) 3.2% | activation ([3]; at 42.5 µM (top of the series)) -3.74% | activation ([3]; at 92.4 µM (top of the series)) 4.67% | activity change, negative = cytotoxicity ([4]; at 70.9 µM (top of the series)) 8.7% | activity change, negative = cytotoxicity ([4]; at 154 µM (top of the series)) -0.193% | activity change, positive = activation ([5]; at 42.5 µM (top of the series)) 7.72% | activity change, positive = activation ([5]; at 92.4 µM (top of the series)) -3.47% | activity change, negative = cytotoxicity ([6]; at 35.3 µM (top of the series)) -13.8% | activity change, negative = cytotoxicity ([6]; at 76.8 µM (top of the series)) -1.08% | activity change, negative = cytotoxic ([7]; at 35.3 µM (top of the series)) -1.82% | activity change, negative = cytotoxic ([7]; at 76.8 µM (top of the series)) -7.62% | Potency [8] | activity change, negative = cytotoxic ([9]; at 35.3 µM (top of the series)) 3.57% | activity change, negative = cytotoxic ([9]; at 76.8 µM (top of the series)) -1.08% | Potency [10] | Potency [13] | activity change, negative = cytotoxic ([14]; at 35.3 µM (top of the series)) -0.78% | activity change, negative = cytotoxic ([14]; at 76.8 µM (top of the series)) -0.78% | Potency [15] | Potency [16] | activity change, negative = cytotoxicity ([17]; at 35.3 µM (top of the series)) 3.61% | activity change, negative = cytotoxicity ([17]; at 76.8 µM (top of the series)) 0.773% | Potency [18] | Potency [19]

[NH4+].[O-][Cl+3]([O-])([O-])[O-]
inactive: viability change, negative = cytotoxic ([1]; at 92.4 µM (top of the series)) -1.03% and -7.77% | activity change, negative = cytotoxicity [4, 21] 3.42% and 0.149% | activity change, negative = cytotoxicity ([6]; at 76.8 µM (top of the series)) 0.18% and 1.45% | activity change, negative = cytotoxic ([7]; at 76.8 µM (top of the series)) 0.662% and 1.04% | activity change, negative = cytotoxic [9, 22] 1.1% and 12.7% | Potency [10] | activity change, negative = cytotoxicity [11] -2.29% and -0.432% | Potency [13] | activity change, negative = cytotoxic ([14]; at 76.8 µM (top of the series)) 0.666% and 4.13% | Potency [15] | Potency [16] | activity change, negative = cytotoxicity [17, 22] 1.4% and -2.28% | Potency [18] | Potency [19]

CCN(CC)CCCl
inactive: viability change, negative = cytotoxic ([1]; at 92.4 µM (top of the series)) -18% | Potency [20] | activity change, negative = cytotoxicity [4, 21] 0.657% | activity change, positive = activation ([5]; at 92.4 µM (top of the series)) 10.4% | activity change, negative = cytotoxicity ([6]; at 76.8 µM (top of the series)) -0.145% | activity change, negative = cytotoxic ([7]; at 76.8 µM (top of the series)) 6.7% | Potency [8] | activity change, negative = cytotoxic [9, 22] -2.38% | Potency [10] | activity change, negative = cytotoxicity [11] 3.34% | viability change, negative = cytotoxic [12] 1.19% | Potency [13] | activity change, negative = cytotoxic ([14]; at 76.8 µM (top of the series)) -1.31% | Potency [15] | Potency [16] | activity change, negative = cytotoxicity [17, 22] -2.89% | Potency [19]

CCOP(=O)(CC)Oc1ccc([N+](=O)[O-])cc1 (centres undefined)
inactive: viability change, negative = cytotoxic ([1]; at 42.5 µM (top of the series)) -14.8% | activation ([3]; at 42.5 µM (top of the series)) -3.52% | activity change, negative = cytotoxicity [4, 21] -0.231% [at 70.9 µM] | activity change, positive = activation ([5]; at 42.5 µM (top of the series)) -50.4% | activity change, negative = cytotoxicity ([6]; at 35.3 µM (top of the series)) -5.61% | activity change, negative = cytotoxic ([7]; at 35.3 µM (top of the series)) -6.46% | Potency [8] | activity change, negative = cytotoxic [9, 22] -3.01% [at 35.3 µM] | Potency [10] | activity change, negative = cytotoxicity [11] -0.936% [at 35.3 µM] | viability change, negative = cytotoxic [12] -5.14% [at 35.3 µM] | Potency [13] | activity change, negative = cytotoxic ([14]; at 35.3 µM (top of the series)) -3.15% | Potency [15] | activity change, negative = cytotoxicity [17, 22] 4.14% [at 35.3 µM] | Potency [18]
active: Potency [20] 3.76 µM

From PubChem BioAssay (Tox21)
